target: T1, Peroxisome proliferator-activated receptor delta (Homo sapiens) (UniProt Q03181); conditions: CV-1, 30 uM
T1 sequence (whole entry): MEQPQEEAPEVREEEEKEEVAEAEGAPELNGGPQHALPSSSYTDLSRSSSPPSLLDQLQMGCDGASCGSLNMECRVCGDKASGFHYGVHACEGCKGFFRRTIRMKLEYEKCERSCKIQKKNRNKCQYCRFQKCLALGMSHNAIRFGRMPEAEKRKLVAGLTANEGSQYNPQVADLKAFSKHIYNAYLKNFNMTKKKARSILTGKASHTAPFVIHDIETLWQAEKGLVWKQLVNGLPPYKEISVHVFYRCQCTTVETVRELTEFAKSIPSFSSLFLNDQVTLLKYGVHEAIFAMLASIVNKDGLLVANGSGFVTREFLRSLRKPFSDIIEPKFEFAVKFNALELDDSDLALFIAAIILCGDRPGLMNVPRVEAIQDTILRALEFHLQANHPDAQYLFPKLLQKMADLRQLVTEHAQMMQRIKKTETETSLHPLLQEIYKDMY

Question: How did the Emax turn out when `CC(C)=CCC/C(C)=C/Cc1c(O)cc(/C=C/c2ccccc2)cc1O` [AMORPHASTILBOL] was run?
Answer: Its Emax is 21%.

Question: Which Emax does the source give for `COc1ccc(/C=C/c2cc(O)c(C/C=C(\C)CCC=C(C)C)c(O)c2)cc1` here?
Answer: The Emax was 20%.

Question: Which Emax does the source give for `CC(C)=CCC/C(C)=C/Cc1c(O)cc(/C=C/c2ccc(C=O)cc2)cc1O` here?
Answer: The Emax was 7%.

Question: With `CC(C)=CCC/C(C)=C/Cc1c(O)cc(/C=C/c2ccsc2)cc1O` as the compound, how does the Emax read?
Answer: The Emax was 24%.

Question: `CC(C)=CCC/C(C)=C/Cc1c(O)cc(/C=C/c2ccc(C#N)cc2)cc1O` was tested. Which Emax did it give?
Answer: Its Emax is 15%.
